# From PubChem BioAssay AID602248 (The Scripps Research Institute Molecular Screening Center, 2012)
# This is a selection; strong and weak results do not stand in their true shares. The source made the active and inactive calls. Rule as the data show it: active = activation above about 15%; inactive = the rest.
# Test: counter-screen for M1 agonists: effect in parental CHO-K1 cells (AID 602248);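 also: untransfected CHO-K1 host cells lacking M1 receptor as counterscreen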
# Details: Fluo-8 calcium fluorescence, at 3 µM, active compounds read high, scaled to maximal ATP response, vehicle zero
row,SMILES,activation
1,O=C(NCC1(N2CCOCC2)CCCCC1)c1cc(=O)[nH]c2ccccc12,inactive: 0.33%
2,COc1cc(C(=O)NCC2(N3CCCCC3)CCCCC2)ccc1OC(F)F,inactive: -0.69%
3,CCCCn1nnnc1C(c1cccc2ccccc12)N1CCC(n2c(=O)[nH]c3ccccc32)CC1 (stereo not drawn),inactive: 2.63%
4,CC(C)c1ccc(C(=O)NCC2(N3CCOCC3)CCCCC2)cc1,inactive: -0.04%
5,COc1ccc(NC2CCN(C(=O)OC(C)(C)C)CC2)cc1,inactive: 1.75%
6,CN1CCN(CCOC(=O)C(O)(c2ccccc2)c2ccccc2)CC1,inactive: 0.82%
7,O=C(NCC1(N2CCCCC2)CCCCC1)c1cccc(C(F)(F)F)c1,inactive: 3.65%
8,CCN1CCC(Nc2ccc(Cl)cc2)CC1,inactive: 0.76%
9,N#CC1(Nc2ccccc2)CCN(CCc2ccccc2)CC1,inactive: 0.56%
10,O=c1[nH]c2ccccc2n1C1CCN(C(c2ccccc2OC(F)(F)F)c2nnnn2C2CCCC2)CC1 (stereo not drawn),inactive: -0.24%
11,CSc1ccc(C(=O)NCC2(N3CCOCC3)CCCCC2)cc1,inactive: 0.1%
12,O=C(NCC1(N2CCCCC2)CCCCC1)c1cccc([N+](=O)[O-])c1,inactive: 0.45%
13,CC(C)(C)n1nnnc1C(c1ccccc1OC(F)(F)F)N1CCC(n2c(=O)[nH]c3ccccc32)CC1 (stereo not drawn),inactive: 1.47%
14,O=C(NCC1(N2CCCCC2)CCCCC1)c1ccc(OC(F)F)cc1,inactive: 2.41%
15,COc1ccc(C(c2nnnn2C2CCCC2)N2CCC(n3c(=O)[nH]c4ccccc43)CC2)cc1 (stereo not drawn),inactive: 1.55%
16,Cc1ccc(C(=O)NCC2(N(C)C)CCCCC2)o1,inactive: -0.2%
17,CCCOc1ccc(C(=O)NCC2(N(C)C)CCCCC2)cc1OC,inactive: 0.84%
18,O=C(NCC1(N2CCCCC2)CCCCC1)c1cncc(Br)c1,inactive: 0.06%
19,CN1CCC(Nc2cccc(F)c2)CC1,inactive: -0.08%
20,COc1cc(OC)c(C(=O)NCC2(N(C)C)CCCCC2)cc1OC,inactive: 0.3%
21,O=C(NCC1(N2CCOCC2)CCCCC1)c1cc(F)c(F)cc1Cl,inactive: -0.04%
22,CCC(c1nnnn1C(C)(C)C)N1CCC(n2c(=O)[nH]c3ccccc32)CC1 (stereo not drawn),inactive: 3.62%

row,SMILES,activation
1,CCCCn1nnnc1C(c1ccnc2ccccc12)N1CCC(n2c(=O)[nH]c3ccccc32)CC1 (stereo not drawn),inactive: 4.8%
2,CC(C)c1ccc(NC2CCN(C(=O)OC(C)(C)C)CC2)cc1,inactive: 1.98%
3,CCCCn1nnnc1C(c1ccccc1OC(F)(F)F)N1CCC(n2c(=O)[nH]c3ccccc32)CC1 (stereo not drawn),inactive: 0.92%
4,COc1ccc(CN(CCCl)CCCl)cc1Cl,inactive: 4.56%
5,CN(C)c1cccc(C(=O)NCC2(N3CCCCC3)CCCCC2)c1,inactive: -0.1%
6,O=c1[nH]c2ccccc2n1C1CCN(C(c2cc3ccccc3o2)c2nnnn2C2CCCCC2)CC1 (stereo not drawn),inactive: 0.87%
7,O=C(OC1CN2CCC1CC2)C1c2ccccc2Oc2ccccc21 (stereo not drawn),inactive: 1.36%
8,N#CC1(Nc2ccccc2)CCN(Cc2ccccc2)CC1,inactive: 1.28%
9,O=C(NCC1(N2CCCCC2)CCCCC1)c1ccc(Cl)s1,inactive: 0.82%
10,COc1ccc(Cl)cc1C(=O)NCC1(N2CCOCC2)CCCCC1,inactive: -0.51%
11,CCOC(=O)N1CCC(Nc2ccc(OC)cc2)CC1,inactive: 1.89%
12,CCCCn1nnnc1C(c1ccc(OC)cc1)N1CCC(n2c(=O)[nH]c3ccccc32)CC1 (stereo not drawn),inactive: 3.63%
13,O=c1[nH]c2ccccc2n1C1CCN(C(c2ccccc2OC(F)(F)F)c2nnnn2C2CCCCC2)CC1 (stereo not drawn),inactive: 0.17%
14,O=C(NCC1(N2CCCCC2)CCCCC1)c1ccc(Cl)nc1,inactive: 0.13%
15,Cc1cc(C)cc(N(C(=O)c2ccccc2)C2CCN(C(=O)OC(C)(C)C)CC2)c1,inactive: -0.45%
16,O=C(NCC1(N2CCOCC2)CCCCC1)c1cc2ccccc2o1,inactive: 0.18%
17,CSc1ccccc1C(=O)NCC1(N2CCCCC2)CCCCC1,inactive: -0.46%
18,Cc1cccc(NC2(C#N)CCN(Cc3ccccc3)CC2)c1,inactive: 0.42%
19,COc1ccc(C(=O)NCC2(N3CCCCC3)CCCCC2)cc1,inactive: 0.77%
20,CCC(c1nnnn1C1CCCC1)N1CCC(n2c(=O)[nH]c3ccccc32)CC1 (stereo not drawn),inactive: 3.42%
21,CC(C)(C)OC(=O)N1CCC(N(C(=O)c2ccccc2)c2ccc(F)cc2)CC1,inactive: -0.12%
22,COc1ccc(C(=O)NCC2(N3CCCCC3)CCCCC2)c(OC)c1OC,inactive: -0.14%

row,SMILES,activation
1,O=C(NCC1(N2CCCCC2)CCCCC1)c1ccc(=O)[nH]c1,inactive: 1.83%
2,CCCCn1nnnc1C(c1cccs1)N1CCC(n2c(=O)[nH]c3ccccc32)CC1 (stereo not drawn),inactive: 5%
3,O=C(NCC1(N2CCCCC2)CCCCC1)c1cccs1,inactive: -0.1%
4,CCCCn1nnnc1C(CC)N1CCC(n2c(=O)[nH]c3ccccc32)CC1 (stereo not drawn),inactive: 4.45%
5,COc1cc(C(=O)NCC2(N(C)C)CCCCC2)ccc1OC(F)F,inactive: -0.41%
6,CCOC(=O)N1CCC(Nc2cccc(C)c2)CC1,inactive: 0.59%
7,O=c1[nH]c2ccccc2n1C1CCN(C(c2cccc3ccccc23)c2nnnn2C2CCCC2)CC1 (stereo not drawn),inactive: -0.42%
8,O=c1[nH]c2ccccc2n1C1CCN(C(c2ccccc2)c2nnnn2C2CCCCC2)CC1 (stereo not drawn),inactive: 3.71%
9,O=C(NCC1(N2CCCCC2)CCCCC1)c1ccc(F)cc1,inactive: -0.09%
10,CCCCOc1ccc(C(=O)NCC2(N3CCOCC3)CCCCC2)cc1,inactive: 0.21%
11,O=P1(N(CCCl)CCCl)SCCCS1,inactive: 0.04%
12,CCCCn1nnnc1C(c1cc2ccccc2o1)N1CCC(n2c(=O)[nH]c3ccccc32)CC1 (stereo not drawn),inactive: 5.05%
13,CCOC(=O)N1CCC(Nc2ccc(F)cc2)CC1,inactive: 1.3%
14,COc1ccc(NC2CCN(CCc3ccccc3)CC2)c(OC)c1,inactive: 0.89%
15,CC(C)(C)n1nnnc1C(c1ccccc1)N1CCC(n2c(=O)[nH]c3ccccc32)CC1 (stereo not drawn),inactive: 3.24%
16,O=C1CCN(Cc2ccccc2)CC1,inactive: 0.37%
17,CCOc1ccc(C)cc1CN(CCCl)CCCl,inactive: 3.9%
18,O=C(NCC1(N2CCCCC2)CCCCC1)c1ccco1,inactive: 0.23%
19,Cn1c(=O)[nH]cc(N(CCCl)CCCl)c1=O,inactive: 0.1%
20,CN(C)c1ccc(C(=O)NCC2(N3CCCCC3)CCCCC2)cc1,inactive: 1.03%
21,Cc1ccccc1NC1(C#N)CCN(Cc2ccccc2)CC1,inactive: 1.22%
22,CC(C)(C)n1nnnc1C(c1ccnc2ccccc12)N1CCC(n2c(=O)[nH]c3ccccc32)CC1 (stereo not drawn),inactive: 4.23%

row,SMILES,activation
1,CCN1CCC(Nc2cccc(F)c2)CC1,inactive: -0.14%
2,COc1ccc(C(c2nnnn2C2CCCCC2)N2CCC(n3c(=O)[nH]c4ccccc43)CC2)cc1 (stereo not drawn),inactive: 0.23%
3,Cc1ccc(C(=O)NCC2(N3CCCCC3)CCCCC2)o1,inactive: 0.28%
4,Fc1ccccc1NC1CCN(Cc2ccccc2)CC1,inactive: -0.45%
5,Cc1ccc(NC2(C#N)CCN(Cc3ccccc3)CC2)cc1,inactive: -0.06%
6,CC(=O)N(c1ccccc1)C1CCNCC1,inactive: 1.33%
7,COc1cccc(C(c2nnnn2C2CCCCC2)N2CCC(n3c(=O)[nH]c4ccccc43)CC2)c1OC (stereo not drawn),inactive: 5.21%
8,CCC(c1nnnn1C1CCCCC1)N1CCC(n2c(=O)[nH]c3ccccc32)CC1 (stereo not drawn),inactive: 3.89%
9,O=c1[nH]c2ccccc2n1C1CCN(C(c2ccnc3ccccc23)c2nnnn2C2CCCCC2)CC1 (stereo not drawn),inactive: 3.76%
10,COc1cc(OC)cc(C(=O)NCC2(N3CCCCC3)CCCCC2)c1,inactive: 1.99%
11,CN1CCC(Nc2ccc(Cl)cc2)CC1,inactive: 0.93%
12,COc1cccc(C(=O)N(c2cc(C)cc(C)c2)C2CCN(C(=O)OC(C)(C)C)CC2)c1,inactive: -1.55%
13,COc1cccc(C(c2nnnn2C2CCCC2)N2CCC(n3c(=O)[nH]c4ccccc43)CC2)c1OC (stereo not drawn),inactive: 4.72%
14,COc1cc(OC)cc(C(=O)NCC2(N3CCOCC3)CCCCC2)c1,inactive: 1.41%
15,CCC(CO)(C(=O)OC1CN2CCC1CC2)c1ccccc1 (stereo not drawn),inactive: -0.27%
16,CC(C)(C)OC(=O)N1CCC(Nc2ccccc2)CC1,inactive: 2.04%
17,NN(c1ccccc1)C1CCN(CCc2ccccc2)CC1,inactive: 0.15%
18,O=C(O)C1(Nc2ccccc2)CCN(Cc2ccccc2)CC1,inactive: 2.55%
19,CCCOc1ccc(C(=O)NCC2(N(C)C)CCCCC2)cc1,inactive: 3.01%
20,O=c1[nH]c2ccccc2n1C1CCN(C(c2cc3ccccc3o2)c2nnnn2C2CCCC2)CC1 (stereo not drawn),inactive: 4.22%
21,CCOc1ncccc1C(=O)NCC1(N2CCOCC2)CCCCC1,inactive: 0.17%
22,CN1CCC(Nc2ccc(F)c(Cl)c2)CC1,inactive: 0.84%

row,SMILES,activation
1,O=C(OC1CN2CCC1CC2)C1c2ccccc2C=Cc2ccccc21 (stereo not drawn),inactive: 0.54%
2,O=c1[nH]c2ccccc2n1C1CCN(C(c2cccs2)c2nnnn2C2CCCC2)CC1 (stereo not drawn),inactive: 5.12%
3,CCCCn1nnnc1C(c1cccc(OC)c1OC)N1CCC(n2c(=O)[nH]c3ccccc32)CC1 (stereo not drawn),inactive: 3.82%
4,COc1cccc(C(c2nnnn2C(C)(C)C)N2CCC(n3c(=O)[nH]c4ccccc43)CC2)c1OC (stereo not drawn),inactive: 2.38%
5,CCOC(=O)N1CCC(Nc2ccc(C)cc2)CC1,inactive: -0.61%
6,N/C(=N\O)c1c(N)no[n+]1[O-],inactive: 0.51%
7,O=c1[nH]c2ccccc2n1C1CCN(C(c2cccs2)c2nnnn2C2CCCCC2)CC1 (stereo not drawn),inactive: 7.13%
8,COc1ccc(C(=O)NCC2(N3CCOCC3)CCCCC2)cc1OC,inactive: 0.32%
9,O=c1[nH]c2ccccc2n1C1CCN(C(c2ccnc3ccccc23)c2nnnn2C2CCCC2)CC1 (stereo not drawn),inactive: 4.95%
10,CCCCn1nnnc1C(c1ccccc1)N1CCC(n2c(=O)[nH]c3ccccc32)CC1 (stereo not drawn),inactive: 4.22%
11,COc1cc(C(=O)NCC2(N3CCOCC3)CCCCC2)cc(OC)c1C,inactive: 0.07%
12,O=C(NCC1(N2CCOCC2)CCCCC1)c1cc(Br)ccc1Cl,inactive: -0.86%
13,CC(C)(C)n1nnnc1C(c1cccc2ccccc12)N1CCC(n2c(=O)[nH]c3ccccc32)CC1 (stereo not drawn),inactive: 2.21%
14,CN(C)C1(CNC(=O)c2cccc(C#N)c2)CCCCC1,inactive: -0.33%
15,c1ccc(CN2CCC(Nc3ccccc3)CC2)cc1,inactive: 0.24%
16,Cc1cc(N(CCCl)CCCl)ccc1C=O,inactive: 1.86%
17,O=c1[nH]c2ccccc2n1C1CCN(C(c2ccccc2)c2nnnn2C2CCCC2)CC1 (stereo not drawn),inactive: 5.16%
18,CCCN1CCC(Nc2cc(OC)cc(OC)c2)CC1,inactive: 0.91%
19,N#Cc1ccc(C(=O)NCC2(N3CCCCC3)CCCCC2)cc1,inactive: -0.44%
20,CC(C)(C)OC(=O)N1CCC(N(C(=O)c2ccccc2)c2ccc(Cl)cc2)CC1,inactive: -1.13%
